Values quoted from earlier work, collected in patent US20030199496A1, “Pharmaceutical compositions containing alpha3beta4 nicotinic receptor antagonists and methods of their use” (priority 2002, published 2003).

Protein sequences, listed by entry. Tags and fused reporters are not part of them.
UniProt P35372, whole entry: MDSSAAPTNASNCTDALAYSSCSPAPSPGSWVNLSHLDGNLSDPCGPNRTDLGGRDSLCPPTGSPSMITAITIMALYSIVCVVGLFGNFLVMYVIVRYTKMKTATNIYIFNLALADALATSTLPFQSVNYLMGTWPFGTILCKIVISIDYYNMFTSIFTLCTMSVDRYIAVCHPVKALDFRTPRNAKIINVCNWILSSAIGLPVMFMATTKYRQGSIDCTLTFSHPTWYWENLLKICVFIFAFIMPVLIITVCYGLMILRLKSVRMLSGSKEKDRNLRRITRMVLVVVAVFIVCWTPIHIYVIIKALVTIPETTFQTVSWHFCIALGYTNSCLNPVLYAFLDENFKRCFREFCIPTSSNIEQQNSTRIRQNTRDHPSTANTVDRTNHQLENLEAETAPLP

What was measured:
mu-opioid receptors = mu-opioid receptors (Homo sapiens, UniProt P35372); conditions: (−)- versus (+)-enantiomer

Row | Substance | fold lesser affinity to bind mu opioid receptor than the (+)-enantiomer (mu-opioid receptors) | neurotoxicity, especially on Purkinje nerve cells (Purkinje nerve cells; at certain doses) | tremors (Purkinje nerve cells; human and animal subjects)
1 | (−)-18-methoxycoronaridine | 10 fold |  | 
2 | ibogaine |  | neurotoxic | cause tremors
